Literature values, collected in patent publication US9465025B2, “Stable neural stem cell lines” (Neuralstem, Inc., priority 1996, dated 2016).

Target: T1, ligand binding fragment of the human progesterone receptor (Homo sapiens, UniProt P06401)
T1 sequence (P06401 679-913 limits assumed): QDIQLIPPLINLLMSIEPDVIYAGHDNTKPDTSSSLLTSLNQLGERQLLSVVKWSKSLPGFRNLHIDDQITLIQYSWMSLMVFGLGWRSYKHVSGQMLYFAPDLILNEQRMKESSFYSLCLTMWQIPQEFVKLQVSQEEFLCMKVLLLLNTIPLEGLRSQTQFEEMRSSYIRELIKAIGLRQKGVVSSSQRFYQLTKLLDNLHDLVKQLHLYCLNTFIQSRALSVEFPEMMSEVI
Details: Wang et al. 1994; cited from earlier work

Structure (SMILES) | activation of receptor fragment
CC#C[C@]1(O)CC[C@H]2[C@@H]3CCC4=CC(=O)CCC4=C3[C@@H](c3ccc(N(C)C)cc3)C[C@@]21C [RU38486] | sensitively activated
CC(=O)[C@H]1CC[C@H]2[C@@H]3CCC4=CC(=O)CC[C@]4(C)[C@H]3CC[C@]12C [progesterone] | does not respond
